Assay: pH and water solubility of hPTH hexaacetate in solution
Type: physicochemical
Conditions: mole ratio 1 to 6
Text: Referring now to FIG. 10, there is shown a superposition of the mole ratios for acetic acid and the neutral form of hPTH(1-34). The pH of a HPTH hexaacetate (mole ratio 1 to 6) in solution is about pH 5. At pH 5, negligible amounts of PTH are present as PTH zero net charge (PTH 0). The PTH is also highly soluble in water at concentrations in excess of 20%. During drying and subsequent storage, the free acetic acid will evaporate inherently resulting in formation of the water insoluble PTH 0. Subsequent reconstitution in water will not allow total solubilization of PTH. Accordingly, the use of a low volatility counterion provides a solid soluble formulation of PTH as long as the pH is maintained at least 2.5 pH units, preferably 3 pH units, below the pI of PTH. Preferably, this can be achieved by providing at least about two low volatility counterions to each molecule of PTH.

Q: With “HPTH hexaacetate: hPTH with acetic acid counterion, mole ratio 1 to 6” as the substance, how does the pH in solution read?
A: ~5 pH

— patent US20080039775A1, “Apparatus and Method for Transdermal Delivery of Parathyroid Hormone Agents to Prevent or Treat Osteopenia” (ALZA CORPORATION, priority 2006, published 2008)
